Earlier results as cited in PMC9027176 (Viruses, 2022).

Legend:
M11 = settings: read-out: Affinity (nM), M11; Isothermal Titration Calorimetry; cited from earlier work
FPV039 = biological target: FPV039; set-up: method as in ref 49 = [49]; settings: Isothermal Titration Calorimetry; read-out: Affinity (nM), FPV039; cited from earlier work
Mcl-1 = test system: Mcl-1; set-up: method as in ref 46 = [46]; settings: affinity measured by SPR; cited from earlier work

## CC[C@H](C)[C@H](NC(=O)[C@H](CS)NC(=O)[C@H](CCC(N)=O)NC(=O)[C@H](CC(C)C)NC(=O)[C@H](CCCCN)NC(=O)[C@H](CCCNC(=N)N)NC(=O)[C@H](C)NC(=O)[C@@H](NC(=O)[C@H](CCC(N)=O)NC(=O)[C@@H](NC(=O)[C@H](CCC(=O)O)NC(=O)[C@H](C)NC(=O)[C@H](CCC(N)=O)NC(=O)[C@H](Cc1c[nH]cn1)NC(=O)[C@@H](N)CCC(N)=O)C(C)C)[C@@H](C)CC)C(=O)N[C@@H](C)C(=O)N[C@@H](CC(=O)O)C(=O)N[C@@H](CCC(N)=O)C(=O)N[C@@H](Cc1ccccc1)C(=O)N[C@@H](Cc1c[nH]cn1)C(=O)N[C@@H](CCCNC(=N)N)C(=O)N[C@@H](CC(C)C)C(=O)N[C@@H](Cc1c[nH]cn1)C(=O)N[C@H](C(=O)N[C@@H](CCC(N)=O)C(=O)N[C@@H](CCC(N)=O)C(=O)O)C(C)C [Bmf]
M11
  Kd: 300 nM
FPV039
  Kd: 254 nM
Mcl-1
  Affinity (nM), Mcl-1: 1100 nM

## CSCC[C@H](NC(=O)[C@H](CCCNC(=N)N)NC(=O)[C@H](CCCNC(=N)N)NC(=O)[C@H](CC(C)C)NC(=O)[C@H](CCC(=O)O)NC(=O)[C@H](CCCNC(=N)N)NC(=O)CNC(=O)[C@H](Cc1ccc(O)cc1)NC(=O)[C@H](CCCNC(=N)N)NC(=O)[C@H](CCC(N)=O)NC(=O)[C@H](C)NC(=O)[C@H](C)NC(=O)[C@H](Cc1c[nH]c2ccccc12)NC(=O)[C@H](CC(C)C)NC(=O)[C@@H](N)CC(N)=O)C(=O)N[C@@H](CO)C(=O)N[C@@H](CC(=O)O)C(=O)N[C@@H](CCC(=O)O)C(=O)N[C@@H](Cc1ccccc1)C(=O)N[C@H](C(=O)N[C@@H](CC(=O)O)C(=O)N[C@@H](CO)C(=O)N[C@@H](Cc1ccccc1)C(=O)N[C@@H](CCCCN)C(=O)N[C@@H](CCCCN)C(=O)NCC(=O)O)C(C)C [Bad]
FPV039
  Kd: 653 nM
Mcl-1
  Affinity (nM), Mcl-1: >100,000 nM
